# Source: article PMC5406460 (Frontiers in Microbiology, 2017)
# Non-standard residues stand in square brackets, D forms with d. Residues, ends and D or L forms follow the SMILES beside them. ξ: configuration not given here. *: point of attachment. ξF = NC(Cc1ccccc1)C(=O)O; Cbz = O=C(OCc1ccccc1)*; CH2Cl = ClC*
# Test: in vitro
# Details: human, HepG2 cells
row,SMILES,CC50 [µM]
1,"CC(C)C[C@H](NC(=O)[C@H](Cc1ccccc1)NC(=O)c1cnccn1)B(O)O [Pyr-FL-BA, Pyrazine-Phenylalanine-Leucine-Boronic acid]",250
2,"CC(C)C[C@H](NC(=O)[C@H](Cc1ccccc1)NC(=O)c1cnccn1)C(=O)CCl [Pyr-FL-CMK, N-((S)-1-(((S)-1-chloro-5-methyl-2-oxohexan-3-yl)amino)-1-oxo-3-phenylpropan-2-yl)pyrazine-2-carboxamide]",> 500
3,"O=C(CNC(=O)OCc1ccccc1)NCC(=O)NC(Cc1ccccc1)C(=O)CCl (stereo not drawn) [Z-GGF-CMK, Carboxybenzyl-glycine-glycine-phenylalanine-CMK] (Cbz-Gly-Gly-[ξF]-CH2Cl)",125
4,"CC(C)C[C@H](NC(=O)CNC(=O)OCc1ccccc1)C(=O)NC(Cc1ccccc1)C(=O)CCl (stereo partly drawn) [Z-GLF-CMK, Carboxybenzyl-glycine-leucine-phenylalanine-CMK] (Cbz-Gly-Leu-[ξF]-CH2Cl)",60
